From patent publication US20160159787A1, “Cis-tetrahydro-spiro(cyclohexane-1, 1' -pyrido[3,4-b]indole)-4-amine Compounds” (published 2016)
pEC50, pKi: −log10 of the molar value. Read-outs that look alike come from different tables or passages of the source.

Columns and labels:
ORL1 receptor = ORL1 receptor (Homo sapiens, UniProt P41146); assay: ORL1 receptor binding (3H-nociceptin/orphanin FQ, CHO-ORL1 membranes)
k-Opioid [1] = biological target: T1, k-Opioid (Homo sapiens, UniProt P41145); assay: k-Opioid receptor radio-binding assay; conditions: read-out: k-Opioid Ki
d-Opioid [2] = biological target: T2, d-Opioid (Homo sapiens, UniProt P41143); assay: d-Opioid receptor radio-binding assay; conditions: read-out: d-Opioid Ki
k-Opioid [3] = biological target: T1, k-Opioid; assay: GTPgammaS assay, k-Opioid; conditions: for pEC50: read-out: k-Opioid EC50
human μ-opiate receptor = human μ-opiate receptor (Homo sapiens, UniProt P35372); assay: μ-opioid receptor binding ([3H]-naloxone, CHO-K1 membranes)
μ-Opioid = μ-Opioid (Homo sapiens, UniProt P35372); assay: GTPgammaS assay, μ-Opioid; conditions: for pEC50: read-out: μ-Opioid EC50
d-Opioid [4] = biological target: T2, d-Opioid; assay: GTPgammaS assay, d-Opioid; conditions: for pEC50: read-out: d-Opioid EC50
mouse = assay: STZ, mouse: diabetic polyneuropathy; conditions: 100 μg/kg i.p.
rat = assay: Chung model: mononeuropathic pain after spinal nerve ligation; conditions: test dose 100 μg/kg i.v.
[5] = read-out: Ki (ORL1), binding affinity
[6] = read-out: ORL1 Ki, radio-binding assay (Table 6)
[7] = read-out: Ki (μ), binding affinity
[8] = read-out: μ-Opioid Ki, radio-binding assay (Table 6)

| SMILES | pKi (ORL1 receptor; [5]) | pKi (ORL1 receptor; [6]) | pKi (k-Opioid [1]) | pKi (d-Opioid [2]) | k-Opioid relative efficacy (k-Opioid [3]) | pEC50 (k-Opioid [3]) | pKi (human μ-opiate receptor; [7]) | pKi (human μ-opiate receptor; [8]) | μ-Opioid relative efficacy (μ-Opioid) | pEC50 (μ-Opioid) | d-Opioid relative efficacy (d-Opioid [4]) | pEC50 (d-Opioid [4]) | ratio of ORL1 receptor affinity to μ-opioid receptor affinity (ORL1 receptor; 1/[Ki(ORL1)/Ki(μ)]) | STZ, mouse: antinociceptive action in non-neuropathic control animals (mouse) | Chung, rat: antinociceptive action in healthy tissue (rat) |
| --- | --- | --- | --- | --- | --- | --- | --- | --- | --- | --- | --- | --- | --- | --- | --- |
| COc1ccc(CC(=O)N2CCc3c4ccccc4[nH]c3[C@]23CC[C@@](c2cccc(F)c2)(N(C)C)CC3)cc1OC | 9.00 | 9.00 | 8.40 | 9.00 | 64% | 7.54 | 9.00 | 9.00 | 88% | 8.52 | 82% | 8.30 | – | – | – |
| COc1ccc(CC(=O)N2CCc3c4ccccc4[nH]c3[C@]23CC[C@](c2cccc(F)c2)(N(C)C)CC3)cc1OC | 7.15 | 7.15 | 6.27 | 6.10 | 85% | 5.93 | 6.35 | 6.35 | 94% | 7.31 | 106% | 5.57 | about 6 | no antinociceptive action in | no |
